Experiments:
Type in all cases: binding
[1] = tested on: Mouse monoclonal antibody AM1-2E10; experiment: Antigen panel (direct) ELISA, MoAb tissue culture supernatant; conditions: for Percent reactivity: AM1-2E10, OD to test antigen / OD to CSA-DVS-HSA × 100; for OD: AM1-2E10 TCS, coated test antigen
Protocol: (§1) 1. Use Falcon Pro-bind immunoplate.
(§2) 2. Dilute coating antigen (Ag) to 1.0 μg/mL in carbonate-bicarbonate buffer. Use glass tubes.
(§3) 3. Add 100 μL to each well of plate. Store overnight at 4° C.
(§4) 4. Shake out wells and wash 3× with 200 μL PBS/0.05% TWEEN™ (polyoxyethylene-sorbitol) (v/v) per well.
(§5) 5. Add blocking buffer, 200 μL per well (PBS/2% BSA (w/v)). Incubate for 60 min at 37° C.
(§6) 7. Add 100 μL per well of test antibody appropriately diluted in PBS/0.1% Tween (v/v). Incubate 60 min at 37° C.
(§7) 9. Dilute alkaline phosphatase conjugated anti-mouse IgG (Pierce cat #31322) in PBS/0.1% TWEEN™ (polyoxyethylene-sorbitol) (v/v) to 1:2000 concentration. Add 100 μL per well and incubate at 37° C. for 60 min.
(§8) 10. Wash 3× as in step 4.
(§9) 11. Prepare enzyme substrate using Sigma #104 alkaline phosphatase substrate tablets (1 mg/mL in 10% diethanolamine (v/v) substrate buffer). Add 100 μL per well and incubate in the dark at room temperature. Absorbance can be read at 405 nm at approximately 15-min intervals.
(§10) Spleen cells from mice immunized with the AM1-DVS conjugates have been used to prepare monoclonal antibody secreting hybridoma cells. IgM and IgG anti-CSA MoAbs have been isolated by direct ELISA to CSA-DVS-HSA conjugates. Table 17 illustrates the reactivity of TCS from two of these monoclonal antibody clones (AM1-2E10 and Am1-7F5).

[2] = tested on: Mouse monoclonal antibody AM1-7F5; experiment: as above; conditions: for Percent reactivity: AM1-7F5, OD to test antigen / OD to CSA-DVS-HSA × 100; for OD: AM1-7F5 TCS, coated test antigen
Protocol: as §1, §2, §3, §4, §5, §6, §7, §8, §9, §10

[3] = tested on: Mouse monoclonal antibody CSA-2G9; experiment: as above; conditions: for Percent reactivity: CSA-2G9, OD to test antigen / OD to CSA-DVS-HSA × 100; for OD: CSA-2G9 TCS, coated test antigen
Protocol: as §1, §2, §3, §4, §5, §6, §7, §8, §9
(§11) Spleen cells from mice immunized with the CSA-DVS conjugate have been used to prepare monoclonal antibody secreting hybridoma clones. IgM and IgG anti-CSA secreting clones have been isolated. Table 15 illustrates the reactivity of tissue culture supernatants (TCS) from two of these anti-CSA MoAbs (CSA-1H6 and CSA-2G9).

[4] = tested on: Mouse monoclonal antibody CSA-1H6; experiment: as above; conditions: for Percent reactivity: CSA-1H6, OD to test antigen / OD to CSA-DVS-HSA × 100; for OD: CSA-1H6 TCS, coated test antigen
Protocol: as §1, §2, §3, §4, §5, §6, §7, §8, §9, §11

[5] = tested on: Mouse polyclonal sera (AM9-9-DVS-KLH immunogen); experiment: Antigen panel (direct) ELISA, mouse polyclonal sera; conditions: for Percent reactivity: OD to test antigen/ OD to AM19-9-DVS-HSA × 100; for OD: coated test antigen
Protocol: as §1, §2, §3, §4, §5, §6, §7, §8, §9
Sera from mice immunized with the AM9-9-DVS immunogen which reacted strongly to the AM19-9-DVS hapten were further characterized by antigen panel ELISA (Table 13). Sera from these mice recognize epitopes on the AM19-9-DVS-HSA molecule. […] The reduction in antibody binding to panel antigens coupled through the amino acid #1 residue is presumed to be due to masking of the Ab epitope recognition site. As the AM9-9-DVS immunogens would present the amino acid #1 face of the molecule for immune recognition, blocking the amino acid #1 residue with the DVS linker arm would thereby block Ab/Ag interaction.

[6] = tested on: Mouse polyclonal sera (AM9-1-DVS-KLH immunogen); experiment: as above; conditions: for Percent reactivity: OD to test antigen / OD to AM9-1-DVS-HSA × 100; for OD: coated test antigen
Protocol: as §1, §2, §3, §4, §5, §6, §7, §8, §9
The reduction in antibody binding to the AM19-9 hapten is presumed to be due to masking of the epitope recognition site, (i.e., blocking the modified a.a. #9 residue with the DVS linker arm would thereby block Ab/Ag interaction). […] Screening for specific anti-AM9 MoAbs can also be achieved.

[7] = tested on: Mouse polyclonal sera (AM1-DVS-KLH immunogens); experiment: as above; conditions: for Percent reactivity: OD to test antigen / OD to CSA-DVS-HSA × 100; for OD: coated test antigen
Protocol: as §1, §2, §3, §4, §5, §6, §7, §8, §9
Individual mouse sera collected 10 days post-secondary and tertiary immunizations were assayed for antibody titre by direct ELISA. Mice having high anti-CSA titres were assayed for specificity by antigen panel reactivity.

[8] = tested on: Mouse monoclonal antibody AM19-1-7E12-1; experiment: Antigen panel (direct) ELISA, MoAb tissue culture supernatant; conditions: for Percent reactivity: AM19-1-7E12-1, OD to test antigen / OD to AM19-1-DVS (1)-HSA × 100; for OD: AM19-1-7E12-1 TCS, coated test antigen
Protocol: as §1, §2, §3, §4, §5, §6, §7, §8, §9
(§12) Spleen cells from mice immunized with the AM19-1-DVS (1) conjugate have been used to prepare MoAb secreting hybridoma cells. Anti-AM19-1-DVS (1) ELISA reactive IgM and IgG MoAb isotypes have been isolated. Table 19 illustrates the reactivity of TCS from two of these anti-AM19-1-DVS MoAbs (AM19-1-7E12-1 and AM19-1-7E12-2).

[9] = tested on: Mouse monoclonal antibody AM19-1-7E12-2; experiment: as above; conditions: for Percent reactivity: AM19-1-7E12-2, OD to test antigen / OD to AM19-1-DVS (1)-HSA × 100; for OD: AM19-1-7E12-2 TCS, coated test antigen
Protocol: as §1, §2, §3, §4, §5, §6, §7, §8, §9, §12

[10] = tested on: Mouse polyclonal sera (AM19-9-DVS-KLH immunogens); experiment: Antigen panel (direct) ELISA, mouse polyclonal sera; conditions: for Percent reactivity: OD to test antigen / OD to AM19-9-DVS-HSA × 100; for OD: coated test antigen
Protocol: as §1, §2, §3, §4, §5, §6, §7, §8, §9
Sera from mice immunized with the AM19-9-DVS immunogen showing high reactivity to the AM19-9-DVS hapten were further characterized by antigen panel ELISA (Table 9).

[11] = tested on: Mouse polyclonal sera (CSA-DVS-KLH immunogen); experiment: as above; conditions: for Percent reactivity: OD to test antigen / OD to CSA-DVS-HSA × 100; for OD: coated test antigen
Protocol: as §1, §2, §3, §4, §5, §6, §7, §8, §9
These sera had low reactivity to the AM19-9-DVS-HSA conjugate.

[12] = tested on: Mouse polyclonal sera (AM19-1-DVS (2) - KLH immunogen); experiment: as above; conditions: for Percent reactivity: OD to test antigen/OD to AM19-1-DVS (2) × 100; for OD: coated test antigen
Protocol: as §1, §2, §3, §4, §5, §6, §7, §8, §9
(§13) These serum samples were assayed by direct ELISA for antibody titre to specific haptens. Sera showing high antibody reactivity to AM19 were further characterized by antigen panel ELISA (Table 6).

[13] = tested on: Mouse polyclonal sera (AM19-1-DVS (1) - KLH immunogen); experiment: as above; conditions: for Percent reactivity: OD to test antigen/OD to AM19-1-DVS (1) × 100; for OD: coated test antigen
Protocol: as §1, §2, §3, §4, §5, §6, §7, §8, §9, §13

Substance: AM19-9-DVS-HSA: AM19-DVS hapten (DVS through hydroxyl of amino acid 9) conjugated to HSA
- Percent reactivity [1]: 17.5%
- OD [1]: 0.270
- Percent reactivity [2]: 40.1%
- OD [2]: 0.790
- Percent reactivity [3]: 11.7%
- OD [3]: 0.323
- Percent reactivity [4]: 33.7%
- OD [4]: 0.511
- Percent reactivity ([5]; Mouse 1): 100%
- OD ([5]; Mouse 1): 3.077
- Percent reactivity ([5]; Mouse 2): 100%
- OD ([5]; Mouse 2): 0.618
- Percent reactivity ([5]; Mouse 3): 100%
- OD ([5]; Mouse 3): 1.802
- Percent reactivity ([6]; Mouse 1): 57.7%
- OD ([6]; Mouse 1): 1.119
- Percent reactivity ([6]; Mouse 2): 67.3%
- OD ([6]; Mouse 2): 1.644
- Percent reactivity ([7]; Mouse 1): 61.9%
- OD ([7]; Mouse 1): 0.483
- Percent reactivity ([7]; Mouse 2): 93.7%
- OD ([7]; Mouse 2): 0.583
- Percent reactivity [8]: 89.4%
- OD [8]: 2.883
- Percent reactivity [9]: 64.3%
- OD [9]: 2.132
- Percent reactivity ([10]; Mouse 5): 100%
- OD ([10]; Mouse 5): 3.231
- Percent reactivity ([10]; Mouse 6): 100%
- OD ([10]; Mouse 6): 3.267
- Percent reactivity ([11]; Mouse 1): 29.3%
- OD ([11]; Mouse 1): 0.290
- Percent reactivity ([11]; Mouse 2): 46.4%
- OD ([11]; Mouse 2): 0.453
- Percent reactivity ([12]; Mouse 3): 45.8%
- OD ([12]; Mouse 3): 0.646
- Percent reactivity ([12]; Mouse 4): 42.4%
- OD ([12]; Mouse 4): 1.091
- Percent reactivity ([13]; Mouse 1): 96.6%
- OD ([13]; Mouse 1): 3.17
- Percent reactivity ([13]; Mouse 2): 79.6%
- OD ([13]; Mouse 2): 2.409

Substance: FK-DVS-HSA: FK conjugate with HSA used as panel antigen
- Percent reactivity [1]: 0%
- OD [1]: 0.015
- Percent reactivity [2]: 0%
- OD [2]: 0
- Percent reactivity [3]: 1.1%
- OD [3]: 0.029
- Percent reactivity [4]: 0%
- OD [4]: 0
- Percent reactivity ([5]; Mouse 1): 0%
- OD ([5]; Mouse 1): 0.016
- Percent reactivity ([5]; Mouse 2): 0%
- OD ([5]; Mouse 2): 0
- Percent reactivity ([5]; Mouse 3): 2.6%
- OD ([5]; Mouse 3): 0.046
- Percent reactivity ([6]; Mouse 1): 0%
- OD ([6]; Mouse 1): 0
- Percent reactivity ([6]; Mouse 2): 0%
- OD ([6]; Mouse 2): 0
- Percent reactivity ([7]; Mouse 1): 0%
- OD ([7]; Mouse 1): 0
- Percent reactivity ([7]; Mouse 2): 0%
- OD ([7]; Mouse 2): 0
- Percent reactivity [8]: 0%
- OD [8]: 0.029
- Percent reactivity [9]: 0%
- OD [9]: 0
- Percent reactivity ([10]; Mouse 5): 1.0%
- OD ([10]; Mouse 5): 0.033
- Percent reactivity ([10]; Mouse 6): 0%
- OD ([10]; Mouse 6): 0.032
- Percent reactivity ([11]; Mouse 1): 0%
- OD ([11]; Mouse 1): 0.005
- Percent reactivity ([11]; Mouse 2): 1.0%
- OD ([11]; Mouse 2): 0.010
- Percent reactivity ([12]; Mouse 3): 0%
- OD ([12]; Mouse 3): 0
- Percent reactivity ([12]; Mouse 4): 0%
- OD ([12]; Mouse 4): 0
- Percent reactivity ([13]; Mouse 1): 0%
- OD ([13]; Mouse 1): 0
- Percent reactivity ([13]; Mouse 2): 0%
- OD ([13]; Mouse 2): 0

Substance: Rapa-suc-HSA: Rapamycin conjugate with HSA used as panel antigen
- Percent reactivity [1]: 0%
- OD [1]: 0.015
- Percent reactivity [2]: 0%
- OD [2]: 0.008
- Percent reactivity [3]: 0%
- OD [3]: 0.006
- Percent reactivity [4]: 0%
- OD [4]: 0
- Percent reactivity ([5]; Mouse 1): 1.6%
- OD ([5]; Mouse 1): 0.048
- Percent reactivity ([5]; Mouse 3): 0%
- OD ([5]; Mouse 3): 0
- Percent reactivity ([6]; Mouse 1): 0%
- OD ([6]; Mouse 1): 0
- Percent reactivity ([6]; Mouse 2): 0%
- OD ([6]; Mouse 2): 0
- Percent reactivity ([7]; Mouse 1): 0%
- OD ([7]; Mouse 1): 0
- Percent reactivity ([7]; Mouse 2): 0%
- OD ([7]; Mouse 2): 0
- Percent reactivity [8]: 0%
- OD [8]: 0
- Percent reactivity [9]: 0%
- OD [9]: 0
- Percent reactivity ([10]; Mouse 5): 0%
- OD ([10]; Mouse 5): 0.020
- Percent reactivity ([10]; Mouse 6): 0%
- OD ([10]; Mouse 6): 0.033
- Percent reactivity ([11]; Mouse 1): 0%
- OD ([11]; Mouse 1): 0
- Percent reactivity ([11]; Mouse 2): 0%
- OD ([11]; Mouse 2): 0
- Percent reactivity ([12]; Mouse 3): 0%
- OD ([12]; Mouse 3): 0
- Percent reactivity ([12]; Mouse 4): 0%
- OD ([12]; Mouse 4): 0
- Percent reactivity ([13]; Mouse 1): 0%
- OD ([13]; Mouse 1): 0
- Percent reactivity ([13]; Mouse 2): 1.2%
- OD ([13]; Mouse 2): 0.036
